Reference: ChEMBL document CHEMBL4834477, “Synthesis and biological evaluation of novel purinyl quinazolinone derivatives as PI3Kδ-specific inhibitors for the treatment of hematologic malignancies” (Bioorg Med Chem, 2021)

Organism: Homo sapiens
Assay: Selectivity ratio of IC50 for recombinant human full length His-tagged p110gamma expressed in baculovirus expression system to IC50 for recombinant human full length His-tagged p110delta/p85alpha expressed in baculovirus expression system

Q: How did the Ratio IC50 turn out when `O=c1c2c(F)cccc2nc([C@@H](Nc2ncnc3nc[nH]c23)C2CC2)n1-c1ccccc1` was run?
A: 49
